Results published in patent US10246429B2, “Vinyl fluoride cyclopropyl fused thiazin-2-amine compounds as beta-secretase inhibitors and methods of use” (AMGEN INC., priority 2015, dated 2019).

Protein sequences, listed by entry. Tags and fused reporters are not part of them. Residues count along the entry.
UniProt P07339, 65-412, species assumed: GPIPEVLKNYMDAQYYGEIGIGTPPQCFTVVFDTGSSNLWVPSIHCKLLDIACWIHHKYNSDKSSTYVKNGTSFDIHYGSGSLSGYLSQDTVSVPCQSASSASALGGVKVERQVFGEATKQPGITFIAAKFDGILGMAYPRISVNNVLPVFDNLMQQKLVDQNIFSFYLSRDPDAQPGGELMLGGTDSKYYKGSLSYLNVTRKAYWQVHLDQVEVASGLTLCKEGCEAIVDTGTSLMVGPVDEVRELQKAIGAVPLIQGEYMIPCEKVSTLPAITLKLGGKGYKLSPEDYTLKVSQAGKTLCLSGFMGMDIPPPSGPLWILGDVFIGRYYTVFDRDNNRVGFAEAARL
UniProt Q9Y5Z0, 63-518: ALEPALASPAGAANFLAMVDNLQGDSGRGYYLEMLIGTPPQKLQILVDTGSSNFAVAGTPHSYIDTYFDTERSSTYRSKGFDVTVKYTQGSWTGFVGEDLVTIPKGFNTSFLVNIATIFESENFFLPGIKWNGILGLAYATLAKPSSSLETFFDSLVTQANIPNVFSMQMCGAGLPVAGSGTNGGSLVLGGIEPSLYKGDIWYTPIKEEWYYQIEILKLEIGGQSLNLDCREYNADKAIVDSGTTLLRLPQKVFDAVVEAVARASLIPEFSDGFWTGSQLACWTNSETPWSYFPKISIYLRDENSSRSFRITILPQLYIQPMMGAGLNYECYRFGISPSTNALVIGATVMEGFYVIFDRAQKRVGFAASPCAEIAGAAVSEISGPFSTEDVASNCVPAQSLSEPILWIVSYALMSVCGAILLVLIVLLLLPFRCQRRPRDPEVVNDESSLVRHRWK
UniProt P56817, 46-501: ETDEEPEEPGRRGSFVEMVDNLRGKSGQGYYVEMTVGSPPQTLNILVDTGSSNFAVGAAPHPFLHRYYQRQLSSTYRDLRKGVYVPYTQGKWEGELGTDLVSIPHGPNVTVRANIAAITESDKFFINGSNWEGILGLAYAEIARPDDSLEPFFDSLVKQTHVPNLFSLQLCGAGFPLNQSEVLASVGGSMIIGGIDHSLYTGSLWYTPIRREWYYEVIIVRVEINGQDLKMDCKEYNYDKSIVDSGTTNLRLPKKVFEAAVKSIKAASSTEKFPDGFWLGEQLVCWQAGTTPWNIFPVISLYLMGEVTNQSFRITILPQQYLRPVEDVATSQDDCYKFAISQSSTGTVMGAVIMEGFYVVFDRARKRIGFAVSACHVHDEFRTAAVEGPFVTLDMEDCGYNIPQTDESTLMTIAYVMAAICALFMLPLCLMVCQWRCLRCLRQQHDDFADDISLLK

Experiments:
Cathepsin D (CatD) = Cathepsin D (CatD) (Homo sapiens (Human), UniProt P07339); assay: CatD assay; format: biochemical; conditions: read-out: IC50 IP (μM) CatD
BACE2 = BACE2 (Homo sapiens (Human), UniProt Q9Y5Z0); assay: In vitro enzymatic BACE2 FRET assay; format: biochemical; conditions: read-out: IC50 IP (μM) BACE2 Enzyme
BACE1 [1] = target: T1, BACE1 (Homo sapiens (Human), UniProt P56817); assay: In vitro enzymatic BACE1 FRET assay; format: biochemical; conditions: read-out: IC50 IP (μM) BACE1 Enzyme
BACE1 [2] = target: T1, BACE1; assay: BACE1 cell assay; format: cell-based; conditions: read-out: IC50 IP (μM) BACE1 Cell

SMILES | IC50 (Cathepsin D (CatD)) [µM] | IC50 (BACE1 [1]) [µM] | IC50 (BACE1 [2]) [µM] | further results
C[C@]1(c2cc(/C=C(\F)c3ccc(C#N)cn3)ccc2F)N=C(N)S[C@@]2(C(=O)N3CCO[C@@H]4C[C@@H]43)C[C@H]21 (single isomer, unassigned) [Example 312] | 714 |  |  | 
C[C@]1(c2cc(/C=C(\F)c3ccc(Cl)cn3)ccc2F)N=C(N)S[C@@]2(C(=O)N3CCC3)C[C@H]21 [Example 112, ((1S,5S,6S)-3-amino-5-(5-((Z)-2-(5-chloropyridin-2-yl)-2-fluorovinyl)-2-fluorophenyl)-5-methyl-2-thia-4-azabicyclo[4.1.0]hept-3-en-1-yl)(azetidin-1-yl)methanone] |  |  |  | IC50 (BACE2): 0.00672 µM
Cc1cc(C#N)cnc1/C(F)=C/c1ccc(F)c([C@@]2(C)N=C(N)S[C@@]3(C(=O)N4CCOCC4)C[C@H]32)c1 [Example 160, 6-((Z)-2-(3-((1S,5S,6S)-3-amino-5-methyl-1-(morpholine-4-carbonyl)-2-thia-4-azabicyclo[4.1.0]hept-3-en-5-yl)-4-fluorophenyl)-1-fluorovinyl)-5-methylnicotinonitrile] | 311 |  |  | 
C[C@]1(c2cc(/C=C(\F)c3ccc(C#N)cn3)ccc2F)N=C(N)S[C@@]2(C(=O)N3CCO[C@H]4C[C@H]43)C[C@H]21 [Example 311, 6-((Z)-2-(3-((1S,5S,6S)-3-amino-1-((1S,6R)-2-oxa-5-azabicyclo[4.1.0]heptane-5-carbonyl)-5-methyl-2-thia-4-azabicyclo[4.1.0]hept-3-en-5-yl)-4-fluorophenyl)-1-fluorovinyl)nicotinonitrile] | 681 |  |  | 
C[C@@]1(O)CCN(C(=O)[C@]23C[C@H]2[C@@](C)(c2cc(/C=C(\F)c4ccc(C#N)cn4)ccc2F)N=C(N)S3)C1 (single isomer, unassigned) [Example 310] |  | 0.0009 | 0.0006 | 
CN(C)C(=O)[C@]12C[C@H]1[C@@](C)(c1cc(/C=C(\F)c3ccc(C#N)cn3)ccc1F)N=C(N)S2 [Example 106, (1S,5S,6S)-3-amino-5-(5-((Z)-2-(5-cyanopyridin-2-yl)-2-fluorovinyl)-2-fluorophenyl)-N,N,5-trimethyl-2-thia-4-azabicyclo[4.1.0]hept-3-ene-1-carboxamide] |  | 0.00253 | 0.00287 | 
C[C@]1(O)CCN(C(=O)[C@]23C[C@H]2[C@@](C)(c2cc(/C=C(\F)c4ccc(C#N)cn4)ccc2F)N=C(N)S3)C1 [Example 309, 6-((Z)-2-(3-((1S,5S,6S)-3-amino-1-((S)-3-hydroxy-3-methylpyrrolidine-1-carbonyl)-5-methyl-2-thia-4-azabicyclo[4.1.0]hept-3-en-5-yl)-4-fluorophenyl)-1-fluorovinyl)nicotinonitrile] |  | 0.0006 | 0.0003 | 
CN(C)C(=O)[C@]12C[C@H]1[C@@](C)(c1cc(/C=C(\F)c3cnc(C#CC4CC4)cn3)ccc1F)N=C(N)S2 [Example 159, (1S,5S,6S)-3-amino-5-(5-((Z)-2-(5-(cyclopropylethynyl)pyrazin-2-yl)-2-fluorovinyl)-2-fluorophenyl)-N,N,5-trimethyl-2-thia-4-azabicyclo[4.1.0]hept-3-ene-1-carboxamide] |  |  |  | IC50 (BACE2): 0.0196 µM
C[C@]1(c2cc(/C=C(\F)c3cnc(C#N)cn3)ccc2F)N=C(N)S[C@@]2(C(=O)N3CCOCC3)C[C@H]21 [Example 200, 5-((Z)-2-(3-((1S,5S,6S)-3-amino-5-methyl-1-(morpholine-4-carbonyl)-2-thia-4-azabicyclo[4.1.0]hept-3-en-5-yl)-4-fluorophenyl)-1-fluorovinyl)pyrazine-2-carbonitrile] | 89.8 |  |  | 
